Biological target: LFA-1 (CD18/CD11a) binding to ICAM-1 (Homo sapiens, UniProt P20701)
Assay: LFA-1/Biotin-sICAM-1 AlphaScreen assay: inhibition of LFA-1 binding to ICAM-1
Conditions: read-out: Alphascreen IC50, 37° C. 90 minutes, highest compound concentration 1 μM
Description: Assay to Determine Inhibition of LFA-1 Binding to ICAM-1
This assay protocol is designed to study the direct antagonism, by a test compound, of the interaction of ICAM-1 with the Leukointegrin CD18/CD11a (LFA-1).
The LFA-1/Biotin-sICAM-1 molecular assay measures the ability of test compounds to inhibit binding of LFA-1 to Biotinylated-sICAM using AlphaScreen technology (Ref: Wilson, J, Rossi, C P, Carboni, S, Fremaux, C, Perrin, D, Soto, C, Kosco-Vilbois, M, and Scheer, A: A Homogeneous 384-Well High-Throughput Binding Assay for a TNF Receptor Using Alphascreen Technology. J Biomol Screen 2003; 8:522-532) that uses TS2/4(anti-LFA-1)-custom conjugated AlphaLisa acceptor beads and streptavidin-coated donor beads from PerkinElmer. The assay was performed in white OptiPlates-384 in a volume of 60 μL using assay buffer (Dulbecco's PBS containing calcium and magnesium, 2 mM MgCl2, 0.1 mM PMSF, 0.1% BSA, pH 7.1). To each well, Biotin-sICAM was added followed by purified LFA-1 (in buffer of 50 mM triethylamine, 150 mM NaCl, 1% beta octylglucoside, 2 mM MgCl2 neutralized to pH with 1M Tris-HCl, pH 7.5). For compound testing, compound was added in 5 uL to the above in 25 uL. LFA-1 and Biotin-sICAM-1 were used at concentrations that would yield a signal to background ratio of 8-10. The highest concentration of compound was 1 μM in 1% DMSO. Positive controls were wells without compound containing LFA-1, while blanks were wells without both compound and LFA-1. Plates were mixed and incubated at 37° C. for 90 minutes. This was followed by addition of 15 μL/well TS2/4-conjugated acceptor beads diluted in PBS containing 0.1% BSA for a final concentration of 10 μg/mL. The plates were mixed and incubated in the dark for 30 minutes at room temperature followed by addition of 15 μL/well streptavidin-coated donor beads diluted in PBS containing 0.1% BSA at a final concentration of 15 μg/mL. The plates were mixed and incubated in the dark for 60 minutes at room temperature and then read on an EnVision Multilabel Reader using AlphaScreen 384-well OptiPlate protocol.

Chains of the proteins cited; added tags and fusions are not shown. Residues count along the entry.
UniProt P20701, 26-1170 limits assumed: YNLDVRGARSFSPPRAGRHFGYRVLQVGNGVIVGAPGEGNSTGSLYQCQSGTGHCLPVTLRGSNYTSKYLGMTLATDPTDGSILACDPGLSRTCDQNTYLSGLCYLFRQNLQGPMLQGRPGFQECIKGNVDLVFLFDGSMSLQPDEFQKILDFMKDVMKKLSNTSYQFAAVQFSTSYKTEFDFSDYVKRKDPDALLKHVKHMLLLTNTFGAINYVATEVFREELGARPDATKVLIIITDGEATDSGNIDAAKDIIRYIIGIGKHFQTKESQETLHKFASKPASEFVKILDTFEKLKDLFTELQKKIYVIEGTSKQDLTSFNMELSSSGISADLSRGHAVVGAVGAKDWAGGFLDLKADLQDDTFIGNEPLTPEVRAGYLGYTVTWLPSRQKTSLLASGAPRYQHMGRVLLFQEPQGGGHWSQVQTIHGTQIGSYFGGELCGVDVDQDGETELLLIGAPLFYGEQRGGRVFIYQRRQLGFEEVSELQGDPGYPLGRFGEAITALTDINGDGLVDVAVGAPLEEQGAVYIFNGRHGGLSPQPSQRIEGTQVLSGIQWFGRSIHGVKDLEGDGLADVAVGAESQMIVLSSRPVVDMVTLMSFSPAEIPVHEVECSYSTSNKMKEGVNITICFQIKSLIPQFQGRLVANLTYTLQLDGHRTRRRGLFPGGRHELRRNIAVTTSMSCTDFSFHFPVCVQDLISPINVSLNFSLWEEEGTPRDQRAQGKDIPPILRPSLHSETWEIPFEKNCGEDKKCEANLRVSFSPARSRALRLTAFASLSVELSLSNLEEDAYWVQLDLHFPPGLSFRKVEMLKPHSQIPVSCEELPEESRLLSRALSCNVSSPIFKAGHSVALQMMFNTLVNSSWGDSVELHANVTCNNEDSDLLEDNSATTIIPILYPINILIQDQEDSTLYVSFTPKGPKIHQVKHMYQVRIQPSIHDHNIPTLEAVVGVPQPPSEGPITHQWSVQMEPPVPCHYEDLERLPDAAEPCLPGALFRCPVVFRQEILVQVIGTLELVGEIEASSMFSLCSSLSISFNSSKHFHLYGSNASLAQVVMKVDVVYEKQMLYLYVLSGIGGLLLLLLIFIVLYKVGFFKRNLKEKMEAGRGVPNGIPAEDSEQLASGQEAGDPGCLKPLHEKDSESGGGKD
UniProt P05107, 23-769 partner limits assumed: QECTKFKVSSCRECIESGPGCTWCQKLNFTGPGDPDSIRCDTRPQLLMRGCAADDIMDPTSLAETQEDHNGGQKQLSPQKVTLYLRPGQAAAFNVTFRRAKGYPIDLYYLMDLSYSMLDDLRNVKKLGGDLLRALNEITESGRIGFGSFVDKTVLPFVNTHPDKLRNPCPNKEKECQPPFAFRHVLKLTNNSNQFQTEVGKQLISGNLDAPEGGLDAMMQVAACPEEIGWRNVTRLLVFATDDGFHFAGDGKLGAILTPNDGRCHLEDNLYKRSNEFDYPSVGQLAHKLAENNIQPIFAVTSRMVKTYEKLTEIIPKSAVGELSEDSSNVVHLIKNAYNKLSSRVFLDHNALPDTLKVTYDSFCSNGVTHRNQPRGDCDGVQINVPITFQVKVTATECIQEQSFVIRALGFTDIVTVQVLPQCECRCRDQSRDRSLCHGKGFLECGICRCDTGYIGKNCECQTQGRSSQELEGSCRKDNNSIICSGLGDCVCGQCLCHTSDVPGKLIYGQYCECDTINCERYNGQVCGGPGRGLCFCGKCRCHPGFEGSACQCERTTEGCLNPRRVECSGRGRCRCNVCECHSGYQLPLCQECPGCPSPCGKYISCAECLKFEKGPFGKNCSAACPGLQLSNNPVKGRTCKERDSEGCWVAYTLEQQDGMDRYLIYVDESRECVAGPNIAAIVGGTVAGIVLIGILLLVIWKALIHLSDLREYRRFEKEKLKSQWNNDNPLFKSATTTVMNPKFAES

IC50 | SMILES
1.1 nM | C[C@@]1(Cc2ccc(OC(F)(F)F)cc2)C(=O)N(c2cc(Cl)c(F)c(Cl)c2)c2ncc(C(=O)NC3(C(=O)NC4(c5ccc(-c6cn[nH]c6)cn5)CC4)CC3)n21
0.58 nM | C[C@H](NC(=O)c1cnc2n1[C@](C)(Cc1ccc(C#N)cc1)C(=O)N2c1cc(Cl)c(F)c(Cl)c1)C(=O)N[C@H](C)c1ccc(-c2ccc(CO)nc2)cn1
0.68 nM | C[C@@]1(Cc2ccc(C#N)cc2)C(=O)N(c2cc(Cl)c(F)c(Cl)c2)c2ncc(C(=O)NC3(C(=O)NC4(c5ccc(-c6ccc(=O)[nH]c6)cn5)CC4)CC3)n21
0.99 nM | C[C@@]1(Cc2ccc(C#N)cc2)C(=O)N(c2cc(Cl)c(F)c(Cl)c2)c2ncc(C(=O)NC3(C(=O)NC4(c5ccc(-c6cccnc6)cn5)CC4)CC3)n21
1.3 nM | Cn1cc(-c2ccc(C3(NC(=O)C4(NC(=O)c5cnc6n5[C@](C)(Cc5ccc(OC(F)(F)F)cc5)C(=O)N6c5cc(Cl)c(F)c(Cl)c5)CC4)CC3)nc2)cn1
1.8 nM | C[C@@]1(Cc2ccc(OC(F)(F)F)cc2)C(=O)N(c2cc(Cl)c(F)c(Cl)c2)c2ncc(C(=O)NC3(C(=O)NC4(c5ncc(-c6ccc(CO)cc6)cn5)CC4)CC3)n21
1.5 nM | Cc1ncc(-c2ccc(C3(NC(=O)C4(NC(=O)c5cnc6n5[C@](C)(Cc5ccc(C#N)cc5)C(=O)N6c5cc(Cl)c(F)c(Cl)c5)CC4)CC3)nc2)cn1
1.5 nM | Cn1cc(-c2ccc(C3(NC(=O)C4(NC(=O)c5cnc6n5[C@](C)(Cc5ccc(OC(F)(F)F)cc5)C(=O)N6c5cc(Cl)c(F)c(Cl)c5)CC4)CC3)nn2)cn1
1.2 nM | Cc1nn(C)cc1-c1ccc(C2(NC(=O)[C@@H](NC(=O)c3cnc4n3[C@](C)(Cc3ccc(C#N)cc3)C(=O)N4c3cc(Cl)c(F)c(Cl)c3)[C@@H](C)O)CC2)cn1
0.8 nM | C[C@@]1(Cc2ccc(C#N)cc2)C(=O)N(c2cc(Cl)c(F)c(Cl)c2)c2ncc(C(=O)NC3(C(=O)NC4(c5ccc(-c6ccc(S(N)(=O)=O)cc6)cn5)CC4)CC3)n21
0.58 nM | C[C@@]1(Cc2ccc(OC(F)(F)F)cc2)C(=O)N(c2cc(Cl)c(F)c(Cl)c2)c2ncc(C(=O)NC3(C(=O)NC4(c5ccc(-c6ccc(CO)nc6)nc5)CC4)CC3)n21
0.61 nM | C[C@@H](NC(=O)C1(NC(=O)c2cnc3n2[C@](C)(Cc2ccc(C#N)cc2)C(=O)N3c2cc(Cl)c(F)c(Cl)c2)CC1)c1ccc(-c2cn[nH]c2)cn1
0.77 nM | C[C@H](NC(=O)c1cnc2n1[C@](C)(Cc1ccc(OC(F)(F)F)cc1)C(=O)N2c1cc(Cl)c(F)c(Cl)c1)C(=O)NC1(c2ccc(-c3cn[nH]c3)nn2)CC1
0.62 nM | C[C@@]1(Cc2ccc(C#N)cc2)C(=O)N(c2cc(Cl)c(F)c(Cl)c2)c2ncc(C(=O)NC3(C(=O)NC4(c5ccc(-c6ccc(CO)nc6)cn5)CC4)CC3)n21
0.83 nM | C[C@@]1(Cc2ccc(C#N)cc2)C(=O)N(c2cc(Cl)c(F)c(Cl)c2)c2ncc(C(=O)NC3(C(=O)NC4(c5ccc(-c6ccc(C(N)=O)cc6)cn5)CC4)CC3)n21
2.9 nM | C[C@H](NC(=O)c1cnc2n1[C@](C)(Cc1ccc(OC(F)(F)F)cc1)C(=O)N2c1cc(Cl)c(F)c(Cl)c1)C(=O)NC1(c2ccc(-c3cnn(C)c3)cn2)CC1
1.2 nM | C[C@@H](O)[C@H](NC(=O)c1cnc2n1[C@](C)(Cc1ccc(OC(F)(F)F)cc1)C(=O)N2c1cc(Cl)c(F)c(Cl)c1)C(=O)NC1(c2ccc(-c3cn[nH]c3)nn2)CC1
0.97 nM | C[C@@]1(Cc2ccc(C#N)cc2)C(=O)N(c2cc(Cl)c(F)c(Cl)c2)c2ncc(C(=O)NC3(C(=O)NC4(c5ccc(-c6ccc(CO)nc6)nc5)CC4)CC3)n21

IC50 | SMILES
0.53 nM | C[C@H](NC(=O)c1cnc2n1[C@](C)(Cc1ccc(C#N)cc1)C(=O)N2c1cc(Cl)c(F)c(Cl)c1)C(=O)NC1(c2ccc(-c3cn[nH]c3)nn2)CC1
1.4 nM | C[C@@]1(Cc2ccc(C#N)cc2)C(=O)N(c2cc(Cl)c(F)c(Cl)c2)c2ncc(C(=O)NC3(C(=O)NC4(c5ncc(-c6ccc(CO)nc6)cn5)CC4)CC3)n21
0.51 nM | Cc1nn(C)cc1-c1ccc([C@@H](C)NC(=O)C2(NC(=O)c3cnc4n3[C@](C)(Cc3ccc(C#N)cc3)C(=O)N4c3cc(Cl)c(F)c(Cl)c3)CC2)cn1
1.2 nM | C[C@@H](O)[C@H](NC(=O)c1cnc2n1[C@](C)(Cc1ccc(OC(F)(F)F)cc1)C(=O)N2c1cc(Cl)c(F)c(Cl)c1)C(=O)NC1(c2ccc(-c3cnn(C)c3)cn2)CC1
0.88 nM | Cn1cc(-c2ccc(C3(NC(=O)C4(NC(=O)c5cnc6n5[C@](C)(Cc5ccc(C#N)cc5)C(=O)N6c5cc(Cl)c(F)c(Cl)c5)CC4)CC3)nc2)cn1
1.3 nM | C[C@@]1(Cc2ccc(OC(F)(F)F)cc2)C(=O)N(c2cc(Cl)cc(Cl)c2)c2ncc(C(=O)NC3(C(=O)NC4(c5ccc(-c6ccc(=O)[nH]c6)cn5)CC4)CC3)n21
1.1 nM | C[C@H](NC(=O)c1cnc2n1[C@](C)(Cc1ccc(C#N)cc1)C(=O)N2c1cc(Cl)c(F)c(Cl)c1)C(=O)NC1(c2ccc(-c3ccc(CO)cc3)nn2)CC1
0.38 nM | C[C@@H](O)[C@H](NC(=O)c1cnc2n1[C@](C)(Cc1ccc(C#N)cc1)C(=O)N2c1cc(Cl)c(F)c(Cl)c1)C(=O)NC1(c2ccc(-c3cn[nH]c3)nn2)CC1
1.9 nM | C[C@H](NC(=O)c1cnc2n1[C@](C)(Cc1ccc(C#N)cc1)C(=O)N2c1cc(Cl)c(F)c(Cl)c1)C(=O)NC1(c2ccc(-c3ccc(CO)cc3)cn2)CC1
1.2 nM | C[C@@]1(Cc2ccc(OC(F)(F)F)cc2)C(=O)N(c2cc(Cl)c(F)c(Cl)c2)c2ncc(C(=O)NC3(C(=O)NC4(c5ccc(-c6ccc(CO)nc6)cn5)CC4)CC3)n21
1.4 nM | C[C@@H](O)[C@H](NC(=O)c1cnc2n1[C@](C)(Cc1ccc(OC(F)(F)F)cc1)C(=O)N2c1cc(Cl)c(F)c(Cl)c1)C(=O)NC1(c2ccc(-c3cnn(C)c3)nn2)CC1
0.86 nM | C[C@H](NC(=O)c1cnc2n1[C@](C)(Cc1ccc(OC(F)(F)F)cc1)C(=O)N2c1cc(Cl)c(F)c(Cl)c1)C(=O)N[C@H](C)c1ccc(-c2ccc(CO)nc2)cn1
0.77 nM | Cc1nn(C)cc1-c1ccc(C2(NC(=O)C3(NC(=O)c4cnc5n4[C@](C)(Cc4ccc(C#N)cc4)C(=O)N5c4cc(Cl)c(F)c(Cl)c4)CC3)CC2)cn1
0.93 nM | Cn1cc(-c2ccc(C3(NC(=O)[C@H](CO)NC(=O)c4cnc5n4[C@](C)(Cc4ccc(OC(F)(F)F)cc4)C(=O)N5c4cc(Cl)c(F)c(Cl)c4)CC3)nc2)cn1
1.3 nM | C[C@H](NC(=O)c1cnc2n1[C@](C)(Cc1ccc(OC(F)(F)F)cc1)C(=O)N2c1cc(Cl)c(F)c(Cl)c1)C(=O)NC1(c2ccc(-c3ccc(CO)nc3)cn2)CC1
0.44 nM | C[C@@H](O)[C@H](NC(=O)c1cnc2n1[C@](C)(Cc1ccc(C#N)cc1)C(=O)N2c1cc(Cl)c(F)c(Cl)c1)C(=O)NC1(c2ccc(-c3cnn(C)c3)nn2)CC1
1.2 nM | C[C@H](NC(=O)c1cnc2n1[C@](C)(Cc1ccc(C#N)cc1)C(=O)N2c1cc(Cl)c(F)c(Cl)c1)C(=O)NC1(c2ccc(-c3cnn(C)c3)nn2)CC1
1.3 nM | C[C@H](NC(=O)c1cnc2n1[C@](C)(Cc1ccc(C#N)cc1)C(=O)N2c1cc(Cl)c(F)c(Cl)c1)C(=O)NC1(c2ccc(-c3ccc(CO)nc3)cn2)CC1

Source: patent publication US8575360B2, “Derivatives of 6,7-dihydro-5H-imidazo[1,2-a]imidazole-3-carboxylic acid amides” (Boehringer Ingelheim International GmbH, priority 2009, dated 2013)
